Permeability data for macrocyclic peptides

Values of Furukawa et al. 2016, doi:10.1021/acs.jmedchem.6b01246, as listed in CycPeptMPDB.

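Lipid, pH, incubation time, direction and concentration are not recorded in the data file. Other peptides of the study may be missing here. Entries at the database's floor value (log10 P of -10) are not listed.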

PAMPA measures passive passage through an artificial lipid membrane. P is given in units of 10^-6 cm/s (from log10 values with two decimals); larger means faster passage.

- CCCCCN1CC(=O)N(C)[C@@H](CC(C)C)C(=O)N[C@@H](CCCC)C(=O)N2CCC[C@@H]2C(=O)N(CCCOC(C)C)CC(=O)N[C@@H](Cc2ccccc2)C1=O: PAMPA 3.3 × 10^-6 cm/s
- CCCCCN1CC(=O)N(C)[C@@H](CC(C)C)C(=O)N[C@@H](CCCC)C(=O)N2CCC[C@@H]2C(=O)N(Cc2ccc3c(c2)OCO3)CC(=O)N[C@@H](C)C1=O: PAMPA 14 × 10^-6 cm/s
- CCCC[C@@H]1NC(=O)[C@H](CC(C)C)N(C)C(=O)CN(CC2CCOCC2)C(=O)[C@H](C)NC(=O)CN(CCCOC(C)C)C(=O)[C@H]2CCCN2C1=O: PAMPA 0.65 × 10^-6 cm/s
- CCCC[C@@H]1NC(=O)[C@@H](CC(C)C)NC(=O)CN(CC2CCOCC2)C(=O)[C@@H](Cc2ccccc2)NC(=O)CN(CCCOC(C)C)C(=O)[C@@H]2CCCN2C1=O: PAMPA 0.28 × 10^-6 cm/s
- CCCC[C@@H]1NC(=O)[C@H](CC(C)C)N(C)C(=O)CN(CC2CCOCC2)C(=O)[C@H](C)NC(=O)CN(Cc2ccc3c(c2)OCO3)C(=O)[C@@H]2CCCN2C1=O: PAMPA 1.2 × 10^-6 cm/s
- CCCC[C@@H]1NC(=O)[C@H](CC(C)C)NC(=O)CN(CC2CCOCC2)C(=O)[C@H](C)NC(=O)CN(CCCOC(C)C)C(=O)[C@H]2CCCN2C1=O: PAMPA 0.1 × 10^-6 cm/s
- CCCC[C@@H]1NC(=O)[C@@H](CC(C)C)NC(=O)CN(CC2CCCCC2)C(=O)[C@H](Cc2ccccc2)NC(=O)CN(CCCOC(C)C)C(=O)[C@@H]2CCCN2C1=O: PAMPA 9.5 × 10^-6 cm/s
- CCCC[C@@H]1NC(=O)[C@@H](CC(C)C)N(C)C(=O)CN(CC2CCOCC2)C(=O)[C@H](C)NC(=O)CN(CCCOC(C)C)C(=O)[C@H]2CCCN2C1=O: PAMPA 1.1 × 10^-6 cm/s
- CCCC[C@@H]1NC(=O)[C@H](CC(C)C)N(C)C(=O)CN(CC2CCOCC2)C(=O)[C@H](Cc2ccccc2)NC(=O)CN(CCCOC(C)C)C(=O)[C@H]2CCCN2C1=O: PAMPA 10 × 10^-6 cm/s
- CCCC[C@@H]1NC(=O)[C@H](CC(C)C)N(C)C(=O)CN(CC2CCOCC2)C(=O)[C@@H](Cc2ccccc2)NC(=O)CN(CCCOC(C)C)C(=O)[C@@H]2CCCN2C1=O: PAMPA 0.54 × 10^-6 cm/s
- CCCCCN1CC(=O)N[C@H](CC(C)C)C(=O)N[C@@H](CCCC)C(=O)N2CCC[C@@H]2C(=O)N(CCCOC(C)C)CC(=O)N[C@@H](C)C1=O: PAMPA 5.5 × 10^-6 cm/s
- CCCC[C@@H]1NC(=O)[C@H](CC(C)C)NC(=O)CN(CC2CCCCC2)C(=O)[C@@H](C)NC(=O)CN(CC)C(=O)[C@@H]2CCCN2C1=O: PAMPA 0.33 × 10^-6 cm/s
- CCCCCN1CC(=O)N[C@@H](CC(C)C)C(=O)N[C@@H](CCCC)C(=O)N2CCC[C@@H]2C(=O)N(Cc2ccc3c(c2)OCO3)CC(=O)N[C@H](C)C1=O: PAMPA 2.1 × 10^-6 cm/s
- CCCC[C@@H]1NC(=O)[C@@H](CC(C)C)NC(=O)CN(CC2CCCCC2)C(=O)[C@@H](C)NC(=O)CN(Cc2ccc3c(c2)OCO3)C(=O)[C@H]2CCCN2C1=O: PAMPA 6.5 × 10^-6 cm/s
- CCCC[C@@H]1NC(=O)[C@H](CC(C)C)NC(=O)CN(CC2CCOCC2)C(=O)[C@H](Cc2ccccc2)NC(=O)CN(CCCOC(C)C)C(=O)[C@@H]2CCCN2C1=O: PAMPA 0.91 × 10^-6 cm/s
- CCCCCN1CC(=O)N(C)[C@@H](CC(C)C)C(=O)N[C@@H](CCCC)C(=O)N2CCC[C@@H]2C(=O)N(CCCOC(C)C)CC(=O)N[C@H](Cc2ccccc2)C1=O: PAMPA 6.9 × 10^-6 cm/s
- CCCC[C@@H]1NC(=O)[C@H](CC(C)C)NC(=O)CN(CC2CCCCC2)C(=O)[C@@H](Cc2ccccc2)NC(=O)CN(Cc2ccc3c(c2)OCO3)C(=O)[C@@H]2CCCN2C1=O: PAMPA 2.3 × 10^-6 cm/s
- CCCC[C@@H]1NC(=O)[C@H](CC(C)C)NC(=O)CN(CC2CCOCC2)C(=O)[C@H](Cc2ccccc2)NC(=O)CN(CC)C(=O)[C@H]2CCCN2C1=O: PAMPA 1.1 × 10^-6 cm/s
- CCCCCN1CC(=O)N[C@H](CC(C)C)C(=O)N[C@@H](CCCC)C(=O)N2CCC[C@H]2C(=O)N(CC)CC(=O)N[C@H](C)C1=O: PAMPA 0.19 × 10^-6 cm/s
- CCCC[C@@H]1NC(=O)[C@H](CC(C)C)NC(=O)CN(CC2CCOCC2)C(=O)[C@H](C)NC(=O)CN(CCCOC(C)C)C(=O)[C@@H]2CCCN2C1=O: PAMPA 0.027 × 10^-6 cm/s
- CCCCCN1CC(=O)N[C@@H](CC(C)C)C(=O)N[C@@H](CCCC)C(=O)N2CCC[C@H]2C(=O)N(CC)CC(=O)N[C@H](Cc2ccccc2)C1=O: PAMPA 3 × 10^-6 cm/s
- CCCC[C@@H]1NC(=O)[C@@H](CC(C)C)NC(=O)CN(CC2CCCCC2)C(=O)[C@@H](Cc2ccccc2)NC(=O)CN(Cc2ccc3c(c2)OCO3)C(=O)[C@H]2CCCN2C1=O: PAMPA 0.0054 × 10^-6 cm/s
- CCCCCN1CC(=O)N[C@H](CC(C)C)C(=O)N[C@@H](CCCC)C(=O)N2CCC[C@H]2C(=O)N(Cc2ccc3c(c2)OCO3)CC(=O)N[C@@H](C)C1=O: PAMPA 8.5 × 10^-6 cm/s

Excerpt, the opening 3 entries:

* CCCCCN1CC(=O)N(C)[C@@H](CC(C)C)C(=O)N[C@@H](CCCC)C(=O)N2CCC[C@@H]2C(=O)N(CCCOC(C)C)CC(=O)N[C@@H](Cc2ccccc2)C1=O: PAMPA 3.3 × 10^-6 cm/s
* CCCCCN1CC(=O)N(C)[C@@H](CC(C)C)C(=O)N[C@@H](CCCC)C(=O)N2CCC[C@@H]2C(=O)N(Cc2ccc3c(c2)OCO3)CC(=O)N[C@@H](C)C1=O: PAMPA 14 × 10^-6 cm/s
* CCCC[C@@H]1NC(=O)[C@H](CC(C)C)N(C)C(=O)CN(CC2CCOCC2)C(=O)[C@H](C)NC(=O)CN(CCCOC(C)C)C(=O)[C@H]2CCCN2C1=O: PAMPA 0.65 × 10^-6 cm/s